Laboratory results from patent US20160113895A1, “Novel Use of Adapalene in Treating Esophageal Cancer and Gastrointestinal Stromal Tumor” (Biodelight Biotech Inc., priority 2013, published 2016).

System: HCC827 implanted tumors
Experiment: Subcutaneous HCC827 xenograft model, groups 3a-3c, o.p.
Conditions: for Body weight change (%): HCC827 tumor-bearing mice, NSL-8 70 mpk, Tarceva 20 mpk o.p.
[1] = HCC827 model, peripheral blood at end-point

C#Cc1cccc(Nc2ncnc3cc(OCCOC)c(OCCOC)cc23)c1 [Erlotinib]
Body weight change (%) (Day 3): 0.2%
Body weight change (%) (Day 7): 1.3%
Body weight change (%) (Day 10): 0.6%
Body weight change (%) (Day 14): −0.2%
counts of red blood cells [1]: decrease
total white blood cells and platelets counted versus vehicle [1]: no significant difference
serum levels of BUN, ALT, and AST among treatment groups (HCC827 model, upon completion of the experiments): no significant difference
